Measured values reported in IntAct's records for PubMed 35512704.

B1: RAC-alpha serine/threonine-protein kinase (Homo sapiens), P31749 (parent)
chain: MSDVAIVKEGWLHKRGEYIKTWRPRYFLLKNDGTFIGYKERPQDVDQREAPLNNFSVAQCQLMKTERPRPNTFIIRCLQWTTVIERTFHVETPEEREEWTTAIQTVADGLKKQEEEEMDFRSGSPSDNSGAEEMEVSLAKPKHRVTMNEFEYLKLLGKGTFGKVILVKEKATGRYYAMKILKKEVIVAKDEVAHTLTENRVLQNSRHPFLTALKYSFQTHDRLCFVMEYANGGELFFHLSRERVFSEDRARFYGAEIVSALDYLHSEKNVVYRDLKLENLMLDKDGHIKITDFGLCKEGIKDGATMKTFCGTPEYLAPEVLEDNDYGRAVDWWGLGVVMYEMMCGRLPFYNQDHEKLFELILMEEIRFPRTLGPEAKSLLSGLLKKDPKQRLGGGSEDAKEIMQHRFFAGIVWQHVYEKKLSPPFKPQVTSETDTRYFDEEFTAQMITITPPDQDDSMECVDSERRPHFPQFSYSASGTA
partner: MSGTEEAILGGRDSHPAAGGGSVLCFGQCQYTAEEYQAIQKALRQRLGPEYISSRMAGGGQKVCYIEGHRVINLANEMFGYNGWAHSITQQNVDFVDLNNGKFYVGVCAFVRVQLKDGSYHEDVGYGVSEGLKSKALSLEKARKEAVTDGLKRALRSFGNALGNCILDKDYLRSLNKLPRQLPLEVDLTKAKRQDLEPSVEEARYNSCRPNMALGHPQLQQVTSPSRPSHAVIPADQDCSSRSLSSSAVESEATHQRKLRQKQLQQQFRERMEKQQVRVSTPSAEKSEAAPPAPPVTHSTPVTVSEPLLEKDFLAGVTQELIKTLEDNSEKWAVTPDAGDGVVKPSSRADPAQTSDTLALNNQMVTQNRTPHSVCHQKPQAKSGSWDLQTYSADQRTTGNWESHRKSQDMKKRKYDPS
B2: RAC-alpha serine/threonine-protein kinase (Homo sapiens), P31749 (parent)
chain: B1 chain
partner: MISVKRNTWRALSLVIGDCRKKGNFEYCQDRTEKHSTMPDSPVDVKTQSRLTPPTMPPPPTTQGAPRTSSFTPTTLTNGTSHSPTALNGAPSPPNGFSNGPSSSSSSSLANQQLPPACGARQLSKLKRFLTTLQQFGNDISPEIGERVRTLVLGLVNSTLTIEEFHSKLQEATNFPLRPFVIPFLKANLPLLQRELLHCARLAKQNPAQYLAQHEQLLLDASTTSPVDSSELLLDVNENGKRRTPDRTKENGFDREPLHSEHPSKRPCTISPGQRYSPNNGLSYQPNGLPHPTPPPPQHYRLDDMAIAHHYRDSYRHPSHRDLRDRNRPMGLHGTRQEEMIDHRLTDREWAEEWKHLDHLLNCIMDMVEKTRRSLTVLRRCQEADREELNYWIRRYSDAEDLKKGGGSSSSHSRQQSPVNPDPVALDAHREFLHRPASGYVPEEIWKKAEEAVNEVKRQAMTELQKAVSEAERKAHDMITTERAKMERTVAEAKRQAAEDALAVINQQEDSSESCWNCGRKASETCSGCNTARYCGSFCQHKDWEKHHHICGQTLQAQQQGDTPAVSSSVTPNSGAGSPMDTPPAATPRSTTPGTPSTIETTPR
B3: RAC-alpha serine/threonine-protein kinase (Homo sapiens), P31749 (parent)
chain: B1 chain
partner: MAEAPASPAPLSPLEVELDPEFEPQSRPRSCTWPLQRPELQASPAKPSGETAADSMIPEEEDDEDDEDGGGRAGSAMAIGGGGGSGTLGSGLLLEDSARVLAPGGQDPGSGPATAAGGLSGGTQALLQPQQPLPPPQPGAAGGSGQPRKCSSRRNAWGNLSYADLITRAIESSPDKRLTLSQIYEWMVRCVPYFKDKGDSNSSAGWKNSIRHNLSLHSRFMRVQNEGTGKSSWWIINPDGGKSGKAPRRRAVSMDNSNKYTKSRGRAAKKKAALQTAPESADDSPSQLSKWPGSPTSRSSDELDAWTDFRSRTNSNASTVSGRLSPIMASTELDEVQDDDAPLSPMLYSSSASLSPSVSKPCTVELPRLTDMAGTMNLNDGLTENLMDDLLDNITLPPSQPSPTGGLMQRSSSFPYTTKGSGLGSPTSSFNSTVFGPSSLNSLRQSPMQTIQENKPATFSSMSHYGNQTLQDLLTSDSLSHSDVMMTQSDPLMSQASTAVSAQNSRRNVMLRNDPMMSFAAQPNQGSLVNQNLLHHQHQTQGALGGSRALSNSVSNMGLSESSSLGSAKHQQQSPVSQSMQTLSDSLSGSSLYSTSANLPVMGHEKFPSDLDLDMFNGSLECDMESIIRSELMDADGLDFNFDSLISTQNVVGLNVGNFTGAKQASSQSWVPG
B4: RAC-alpha serine/threonine-protein kinase (Homo sapiens), P31749 (parent)
chain: B1 chain
partner: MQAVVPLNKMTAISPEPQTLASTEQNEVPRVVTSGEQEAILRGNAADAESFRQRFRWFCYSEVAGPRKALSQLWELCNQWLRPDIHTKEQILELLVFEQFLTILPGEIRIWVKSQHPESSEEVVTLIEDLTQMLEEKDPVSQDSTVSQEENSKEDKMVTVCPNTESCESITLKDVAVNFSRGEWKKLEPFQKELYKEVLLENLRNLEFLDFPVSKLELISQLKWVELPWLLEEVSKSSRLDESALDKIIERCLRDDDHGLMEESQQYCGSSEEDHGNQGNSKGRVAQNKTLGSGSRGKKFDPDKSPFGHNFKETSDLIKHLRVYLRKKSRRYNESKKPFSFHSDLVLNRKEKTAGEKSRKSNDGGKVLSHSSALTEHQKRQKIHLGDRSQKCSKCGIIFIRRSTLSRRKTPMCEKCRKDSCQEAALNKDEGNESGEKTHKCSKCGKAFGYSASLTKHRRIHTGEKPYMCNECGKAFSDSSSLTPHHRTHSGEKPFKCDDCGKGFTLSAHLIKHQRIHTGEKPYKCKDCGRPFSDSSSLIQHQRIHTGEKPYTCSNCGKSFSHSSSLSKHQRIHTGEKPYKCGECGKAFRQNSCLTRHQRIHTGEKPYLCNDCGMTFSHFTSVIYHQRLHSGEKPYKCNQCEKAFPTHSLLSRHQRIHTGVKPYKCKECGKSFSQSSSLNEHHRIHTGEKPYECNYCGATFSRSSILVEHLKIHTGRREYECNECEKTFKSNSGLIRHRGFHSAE
B5: RAC-alpha serine/threonine-protein kinase (Homo sapiens), P31749 (parent)
chain: B1 chain
partner: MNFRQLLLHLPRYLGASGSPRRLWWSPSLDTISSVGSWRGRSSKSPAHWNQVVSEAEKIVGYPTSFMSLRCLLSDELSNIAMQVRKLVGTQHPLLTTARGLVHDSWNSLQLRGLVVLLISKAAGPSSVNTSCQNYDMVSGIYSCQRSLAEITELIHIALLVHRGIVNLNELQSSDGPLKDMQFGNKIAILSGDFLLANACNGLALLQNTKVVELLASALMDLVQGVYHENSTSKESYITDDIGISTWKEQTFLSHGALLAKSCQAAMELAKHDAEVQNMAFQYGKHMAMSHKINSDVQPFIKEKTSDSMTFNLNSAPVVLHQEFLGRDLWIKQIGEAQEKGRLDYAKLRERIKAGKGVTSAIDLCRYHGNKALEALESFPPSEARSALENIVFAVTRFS
B6: RAC-alpha serine/threonine-protein kinase (Homo sapiens), P31749 (parent)
chain: B1 chain
partner: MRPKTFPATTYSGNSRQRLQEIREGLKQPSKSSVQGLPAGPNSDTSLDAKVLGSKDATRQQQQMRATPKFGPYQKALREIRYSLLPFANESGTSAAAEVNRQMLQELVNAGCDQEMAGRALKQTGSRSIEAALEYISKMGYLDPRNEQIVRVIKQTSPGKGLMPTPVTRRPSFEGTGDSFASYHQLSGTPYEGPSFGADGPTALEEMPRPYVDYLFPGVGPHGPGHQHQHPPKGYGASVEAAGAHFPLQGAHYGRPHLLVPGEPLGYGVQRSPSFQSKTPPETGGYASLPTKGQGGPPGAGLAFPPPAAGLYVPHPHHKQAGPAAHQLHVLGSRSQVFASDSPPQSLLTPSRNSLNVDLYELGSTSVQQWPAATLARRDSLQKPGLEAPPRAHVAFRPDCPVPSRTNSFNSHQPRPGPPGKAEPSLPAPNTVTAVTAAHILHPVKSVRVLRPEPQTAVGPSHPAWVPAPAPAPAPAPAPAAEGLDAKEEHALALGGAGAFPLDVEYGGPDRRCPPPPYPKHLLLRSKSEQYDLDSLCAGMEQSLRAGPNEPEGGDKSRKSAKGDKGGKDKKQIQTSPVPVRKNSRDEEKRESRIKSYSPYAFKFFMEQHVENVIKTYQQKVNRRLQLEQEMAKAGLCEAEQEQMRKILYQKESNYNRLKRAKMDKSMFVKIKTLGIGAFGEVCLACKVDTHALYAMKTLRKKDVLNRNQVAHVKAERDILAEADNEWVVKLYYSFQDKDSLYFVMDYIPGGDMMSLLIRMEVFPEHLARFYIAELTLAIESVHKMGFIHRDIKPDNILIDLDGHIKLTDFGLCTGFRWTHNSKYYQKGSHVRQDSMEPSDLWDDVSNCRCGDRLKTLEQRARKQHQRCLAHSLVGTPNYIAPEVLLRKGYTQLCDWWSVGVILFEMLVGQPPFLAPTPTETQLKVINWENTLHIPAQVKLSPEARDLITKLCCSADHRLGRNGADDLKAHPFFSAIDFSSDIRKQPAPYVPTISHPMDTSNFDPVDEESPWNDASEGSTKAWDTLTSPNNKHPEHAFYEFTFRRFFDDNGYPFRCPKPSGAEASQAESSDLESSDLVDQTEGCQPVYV

Variants of: B1
Settings: with rad52_human RAD52, P43351

| effect of a mutation on the interaction | Variant |
| --- | --- |
| with no effect | E17K |

Variants of: B2
Settings: with mtg8_human RUNX1T1, Q06455

| effect of a mutation on the interaction | Variant |
| --- | --- |
| with no effect | E17K |

Variants of: B3
Settings: with foxo3_human FOXO3, O43524

| effect of a mutation on the interaction | Variant |
| --- | --- |
| disrupting interaction strength | E17K |

Variants of: B4
Settings: with zn483_human ZNF483, Q8TF39

| effect of a mutation on the interaction | Variant |
| --- | --- |
| with no effect | E17K |

Variants of: B5
Settings: with dlp1_human PDSS2, Q86YH6

| effect of a mutation on the interaction | Variant |
| --- | --- |
| with no effect | E17K |

Variants of: B6
Settings: with lats2_human LATS2, Q9NRM7

| effect of a mutation on the interaction | Variant |
| --- | --- |
| with no effect | E17K |
